Source: paper PMC13600255 (Journal of the American Chemical Society, 2025)
Where two headings read alike, the source gives them in different places.

Chains of the proteins cited; added tags and fusions are not shown.
UniProt Q01827, whole entry: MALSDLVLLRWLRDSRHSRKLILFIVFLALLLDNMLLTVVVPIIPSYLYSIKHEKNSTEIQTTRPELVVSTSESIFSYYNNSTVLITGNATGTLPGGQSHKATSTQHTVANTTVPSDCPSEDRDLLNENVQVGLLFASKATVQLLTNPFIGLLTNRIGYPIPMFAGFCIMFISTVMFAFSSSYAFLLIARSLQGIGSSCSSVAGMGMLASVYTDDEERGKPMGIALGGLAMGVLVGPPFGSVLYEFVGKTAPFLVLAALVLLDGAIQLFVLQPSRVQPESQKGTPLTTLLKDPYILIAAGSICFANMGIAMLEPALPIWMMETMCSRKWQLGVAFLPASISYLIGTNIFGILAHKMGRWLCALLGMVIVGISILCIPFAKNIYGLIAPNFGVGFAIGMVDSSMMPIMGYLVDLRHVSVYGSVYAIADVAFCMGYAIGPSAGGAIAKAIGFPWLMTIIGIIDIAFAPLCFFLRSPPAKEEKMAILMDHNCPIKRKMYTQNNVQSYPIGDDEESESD
UniProt P23975, whole entry: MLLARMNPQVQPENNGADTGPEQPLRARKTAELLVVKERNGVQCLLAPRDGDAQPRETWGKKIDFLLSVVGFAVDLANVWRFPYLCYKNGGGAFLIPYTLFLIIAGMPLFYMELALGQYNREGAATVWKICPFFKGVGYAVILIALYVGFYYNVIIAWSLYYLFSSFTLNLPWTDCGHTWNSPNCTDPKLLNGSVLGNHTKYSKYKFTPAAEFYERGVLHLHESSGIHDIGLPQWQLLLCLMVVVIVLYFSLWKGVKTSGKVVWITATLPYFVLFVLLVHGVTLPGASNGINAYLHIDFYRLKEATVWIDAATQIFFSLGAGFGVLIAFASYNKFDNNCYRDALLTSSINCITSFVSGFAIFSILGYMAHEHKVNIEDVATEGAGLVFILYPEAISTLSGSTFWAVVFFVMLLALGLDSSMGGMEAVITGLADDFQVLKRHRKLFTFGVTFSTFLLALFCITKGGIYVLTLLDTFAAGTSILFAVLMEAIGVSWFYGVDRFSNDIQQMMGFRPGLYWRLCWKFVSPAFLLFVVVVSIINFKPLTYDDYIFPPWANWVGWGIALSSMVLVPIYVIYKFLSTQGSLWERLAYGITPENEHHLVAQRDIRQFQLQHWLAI
UniProt P31652, whole entry: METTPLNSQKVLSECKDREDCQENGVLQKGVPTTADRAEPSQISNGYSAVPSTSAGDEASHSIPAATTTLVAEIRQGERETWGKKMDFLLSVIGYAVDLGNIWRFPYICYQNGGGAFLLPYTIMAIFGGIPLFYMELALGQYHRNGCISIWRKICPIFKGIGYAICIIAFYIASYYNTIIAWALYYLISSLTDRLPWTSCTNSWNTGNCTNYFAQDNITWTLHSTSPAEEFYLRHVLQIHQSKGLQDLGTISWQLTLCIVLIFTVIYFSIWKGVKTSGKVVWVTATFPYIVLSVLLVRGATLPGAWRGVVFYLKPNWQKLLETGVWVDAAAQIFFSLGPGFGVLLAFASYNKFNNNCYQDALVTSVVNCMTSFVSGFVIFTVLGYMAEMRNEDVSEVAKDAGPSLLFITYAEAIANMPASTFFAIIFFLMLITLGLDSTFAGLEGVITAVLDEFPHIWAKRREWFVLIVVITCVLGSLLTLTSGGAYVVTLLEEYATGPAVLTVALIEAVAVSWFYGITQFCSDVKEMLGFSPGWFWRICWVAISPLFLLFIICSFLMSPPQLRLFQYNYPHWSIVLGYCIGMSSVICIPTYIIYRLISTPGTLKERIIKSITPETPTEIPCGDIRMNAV
UniProt Q05940, whole entry: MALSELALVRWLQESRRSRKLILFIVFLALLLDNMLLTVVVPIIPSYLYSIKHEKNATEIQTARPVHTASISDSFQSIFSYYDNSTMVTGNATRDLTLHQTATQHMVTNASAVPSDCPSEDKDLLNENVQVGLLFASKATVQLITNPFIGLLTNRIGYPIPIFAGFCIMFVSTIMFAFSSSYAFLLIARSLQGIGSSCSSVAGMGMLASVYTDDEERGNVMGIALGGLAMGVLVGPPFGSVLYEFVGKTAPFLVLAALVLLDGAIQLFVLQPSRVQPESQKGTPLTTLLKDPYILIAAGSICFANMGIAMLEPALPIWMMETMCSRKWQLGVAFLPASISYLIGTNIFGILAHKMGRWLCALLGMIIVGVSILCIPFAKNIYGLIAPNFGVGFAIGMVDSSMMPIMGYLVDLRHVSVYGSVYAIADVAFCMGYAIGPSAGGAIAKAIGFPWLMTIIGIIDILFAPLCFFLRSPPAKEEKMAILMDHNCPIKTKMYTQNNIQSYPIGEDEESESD

Experiments:
rat VMAT2 (rVMAT2) = rat VMAT2 (rVMAT2) (Rattus norvegicus, UniProt Q01827); experiment: [3H]5-HT uptake inhibition in rat brain synaptic vesicular fraction; assay type: biochemical; conditions: read-out: Uptake Inhibition at VMAT2 IC50, [3H]5-HT (rVMAT2); rat brain synaptic vesicles
hNET = hNET (Homo sapiens, UniProt P23975); experiment: APP+ fluorescent substrate uptake inhibition in hNET-HEK cells; assay type: cell-based; conditions: read-out: IC50, hNET
mice [1] = experiment: Open field locomotor activity test in mice; conditions: s.c., dose-response
hOCT2 = target: T1, hOCT2 (Homo sapiens, UniProt O15244); experiment: ASP+ fluorescent substrate uptake inhibition at OCT2; assay type: cell-based; conditions: read-out: IC50, hOCT2
T1 sequence (O15244 1-555): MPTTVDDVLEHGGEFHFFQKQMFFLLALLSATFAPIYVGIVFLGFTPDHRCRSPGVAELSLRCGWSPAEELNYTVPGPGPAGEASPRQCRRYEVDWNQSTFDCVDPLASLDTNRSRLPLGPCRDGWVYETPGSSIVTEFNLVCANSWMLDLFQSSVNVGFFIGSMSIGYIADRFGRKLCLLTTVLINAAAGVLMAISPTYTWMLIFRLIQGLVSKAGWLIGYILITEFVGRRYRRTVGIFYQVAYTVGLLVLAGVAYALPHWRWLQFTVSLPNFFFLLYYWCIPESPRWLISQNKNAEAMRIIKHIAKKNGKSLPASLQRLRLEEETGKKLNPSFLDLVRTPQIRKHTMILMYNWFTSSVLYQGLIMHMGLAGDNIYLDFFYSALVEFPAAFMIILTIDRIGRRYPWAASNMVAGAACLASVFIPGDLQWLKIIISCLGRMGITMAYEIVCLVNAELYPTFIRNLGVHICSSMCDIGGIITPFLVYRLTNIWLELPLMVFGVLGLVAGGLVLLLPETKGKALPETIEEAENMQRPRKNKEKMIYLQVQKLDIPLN

Lipophilicity = conditions: Figure S17
[2] = Pharmacokinetics in mice, estimated free drug concentration in brain; conditions: rodents (rats ref 11 and mice, Figure S11)
rat SERT (rSERT) [3] = target: T2, rat SERT (rSERT) (Rattus norvegicus, UniProt P31652); experiment: [3H]5-HT uptake inhibition in rat brain synaptosomes; assay type: biochemical
[4] = opioid-dependent human subjects, ibogaine 10 mg/kg, p.o.; cited from earlier work
mice [5] = experiment: Catalepsy bar test in mice
humans = conditions: cited from earlier work
[6] = Ibogaine plasma and brain exposure in humans; assay type: in vivo; conditions: human, 10 mg/kg p.o., plasma protein binding correction applied
rat SERT (rSERT) [7] = target: T2, rat SERT (rSERT); conditions: read-out: IC50, rSERT reported previously in rat synaptosomes; cited from earlier work
[8] = cited from earlier work
hVMAT2 = hVMAT2 (Homo sapiens, UniProt Q05940); experiment: FFN206 fluorescent substrate uptake inhibition in hVMAT2-HEK cells; assay type: cell-based; conditions: read-out: IC50, hVMAT2 (uptake inhibition, FFN206), fluorescent substrate FFN206, n = 4

Q: Which results are given for ibogaine?
A: IC50 (rat VMAT2 (rVMAT2)): 0.56 µM; IC50 (hNET): 3.67 µM; Locomotor activity / sedation in open field test (mice [1]): suppressing locomotion; IC50 (hOCT2): 9.31 µM; Difference in lipophilicity, ibogaine versus noribogaine (Lipophilicity): 1.5 log D units; Concentration of free drug in the brain over plasma [2]: > 4 fold; IC50 (rat SERT (rSERT) [3]; read-out: Uptake Inhibition at SERT IC50, [3H]5-HT (rSERT)): 3.04 µM; IC50 (rat SERT (rSERT) [3]; read-out: [3H]5-HT Uptake Inhibition IC50 ± SD, SERT, n = 3): 3.04 ± 0.291 µM; Median plasma concentration [4]: ~ 4.8 μM; Tremors (mice [5]; 30 mg/kg and higher): strong tremors; Catalepsy in bar test (mice [5]; s.c., dose-response): did not induce catalepsy; Ataxia (humans; high doses > 10 mg/kg, p.o.): can induce ataxia; Anesthesia-like states (humans; very high doses > 20 mg/kg): can lead to anesthesia-like states; Plasma free concentration [6]: ~ 1.7 μM; IC50 (rat SERT (rSERT) [7]): 3.15 µM; Plasma protein binding, available [8]: 35%; Plasma protein binding, bound [8]: 65%; IC50 (hVMAT2): 0.39 µM
